The experiment deals with Death receptor 5 (DR5) on primary human pancreatic stellate cells (human) (UniProt O14763). The experiment in a line: cell-based or functional assay.

“conatumumab (human anti-DR5 antibody, Creative Biolabs)” displayed a caspase-3/7 activity (apoptosis marker), culture-activated PSCs, 10^3 ng/mL of 10.8 fold.
